Here are results for 25 molecules from PubChem BioAssay AID1456 (Vanderbilt High Throughput Screening Facility, 2008).

The chains behind the UniProt entries cited, without tags or fusion partners.
UniProt Q9H2X9, whole entry: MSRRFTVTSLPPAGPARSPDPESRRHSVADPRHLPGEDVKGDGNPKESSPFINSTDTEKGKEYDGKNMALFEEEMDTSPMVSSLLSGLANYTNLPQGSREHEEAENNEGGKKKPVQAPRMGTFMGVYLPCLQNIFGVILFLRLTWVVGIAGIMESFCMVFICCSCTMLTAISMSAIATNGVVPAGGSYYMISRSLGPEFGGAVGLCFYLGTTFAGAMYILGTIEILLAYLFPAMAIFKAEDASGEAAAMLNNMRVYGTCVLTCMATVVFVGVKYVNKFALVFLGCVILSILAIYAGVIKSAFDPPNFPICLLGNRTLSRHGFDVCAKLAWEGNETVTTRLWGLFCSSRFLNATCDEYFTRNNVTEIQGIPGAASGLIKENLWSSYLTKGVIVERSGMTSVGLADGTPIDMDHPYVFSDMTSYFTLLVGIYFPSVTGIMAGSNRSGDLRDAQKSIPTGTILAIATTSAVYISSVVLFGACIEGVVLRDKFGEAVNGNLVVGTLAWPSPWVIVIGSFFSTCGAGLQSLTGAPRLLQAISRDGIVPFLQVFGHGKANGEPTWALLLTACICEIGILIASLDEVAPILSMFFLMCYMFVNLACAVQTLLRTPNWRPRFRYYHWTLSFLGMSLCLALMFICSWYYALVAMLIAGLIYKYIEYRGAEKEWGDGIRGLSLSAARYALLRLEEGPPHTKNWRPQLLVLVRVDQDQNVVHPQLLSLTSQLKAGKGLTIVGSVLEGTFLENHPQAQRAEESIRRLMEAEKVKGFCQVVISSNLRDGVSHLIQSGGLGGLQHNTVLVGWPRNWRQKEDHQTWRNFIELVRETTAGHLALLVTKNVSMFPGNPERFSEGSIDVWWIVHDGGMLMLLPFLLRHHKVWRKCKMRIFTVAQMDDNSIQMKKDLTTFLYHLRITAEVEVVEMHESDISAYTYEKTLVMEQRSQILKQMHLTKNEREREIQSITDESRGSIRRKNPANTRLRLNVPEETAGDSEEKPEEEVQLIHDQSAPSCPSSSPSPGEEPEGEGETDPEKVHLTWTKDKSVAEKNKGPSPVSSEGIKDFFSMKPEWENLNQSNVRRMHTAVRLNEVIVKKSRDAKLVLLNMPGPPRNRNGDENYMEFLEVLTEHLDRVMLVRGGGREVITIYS

The list shows a part of the results, in another mix than the full data. Activity calls are given as the source filed them.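 Rule for the calls: active = thallium flux slope and its plate-corrected score both differing from the plate sample mean at a set confidence after two filtering rounds, in either direction; inactive = the rest.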

The target of this assay is Solute carrier family 12 member 5 (Homo sapiens) (UniProt Q9H2X9). Nature of the assay: modulation of human KCC2 ion transport – cell-based, HEK293 KCC2, FluoZin-2 fluorescence, MLSMR, primary screen (AID 1456). The note with it: KCC2 cells, thallium flux FluoZin-2 fluorescence; at 10 µM; active compounds read high.
Take `COc1ccc(NC2CCN(C(=O)OC(C)(C)C)CC2)cc1`: the B-score is inactive: 0.371.

Consider `CN1CCN(CCOC(=O)C(O)(c2ccccc2)c2ccccc2)CC1`, for which the B-score is inactive: -0.0592.

As to `O=C(NCC1(N2CCOCC2)CCCCC1)c1cc(=O)[nH]c2ccccc12`, the B-score is inactive: 0.905.

`O=C(NCC1(N2CCCCC2)CCCCC1)c1cccc([N+](=O)[O-])c1`: the B-score was inactive: 1.56.

Consider `CN1CCC(Nc2cccc(F)c2)CC1`, for which the B-score was inactive: 0.346.

For the molecule `COc1ccc(CN(CCCl)CCCl)cc1Cl`, the B-score was inactive: 0.59.

In the case of `CN(C)c1cccc(C(=O)NCC2(N3CCCCC3)CCCCC2)c1`, the B-score was inactive: 0.715.

On to `CC(C)c1ccc(NC2CCN(C(=O)OC(C)(C)C)CC2)cc1`, for which the B-score was inactive: -0.0885.

As for `CCOC(=O)N1CCC(Nc2ccc(OC)cc2)CC1`, the B-score is inactive: 0.216.

On to `N#CC1(Nc2ccccc2)CCN(Cc2ccccc2)CC1`, for which the B-score is inactive: -0.0501.

In the case of `O=C(NCC1(N2CCOCC2)CCCCC1)c1cc2ccccc2o1`, the B-score was inactive: 0.73.

With `COc1ccc(C(=O)NCC2(N3CCCCC3)CCCCC2)c(OC)c1OC`, the B-score was inactive: 0.334.

For `Cc1ccc(OCC(C)C)c(CN(CCCl)CCCl)c1`, the B-score is inactive: 0.585.

Regarding `CCOc1ccc(C)cc1CN(CCCl)CCCl`, the B-score is inactive: 0.528.

Consider `CN(C)c1ccc(C(=O)NCC2(N3CCCCC3)CCCCC2)cc1`, for which the B-score was inactive: -0.736.

Regarding `CCN1CCC(Nc2cccc(F)c2)CC1`, the B-score is inactive: -0.0641.

As for `CCCOc1ccc(C)cc1CN(CCCl)CCCl`, the B-score was inactive: -0.429.

With `CCC(CO)(C(=O)OC1CN2CCC1CC2)c1ccccc1` (stereo not given), the B-score is inactive: 1.93.

As to `COc1cc(OC)cc(C(=O)NCC2(N3CCOCC3)CCCCC2)c1`, the B-score is inactive: 0.0254.

With `CC(C)(C)OC(=O)N1CCC(Nc2ccccc2)CC1`, the B-score was inactive: -0.552.

As to `CCOc1ncccc1C(=O)NCC1(N2CCOCC2)CCCCC1`, the B-score was inactive: -0.455.

Turning to `O=C(OC1CN2CCC1CC2)C1c2ccccc2C=Cc2ccccc21` (stereo not given), the B-score was inactive: 1.1.

For the molecule `N/C(=N\O)c1c(N)no[n+]1[O-]`, the B-score is inactive: -0.856.

Turning to `COc1ccc(C(=O)NCC2(N3CCOCC3)CCCCC2)cc1OC`, the B-score is inactive: -0.0101.

`c1ccc(CN2CCC(Nc3ccccc3)CC2)cc1`: the B-score was inactive: 0.525.
